What was measured:
SNU-16 cells = assay: Cell proliferation assay on SNU-16, CellTiter Glo (Table 8); type: cell-based; conditions: Homo sapiens, 96 hrs, class symbols, read-out: IC50(nM) value of compounds on SNU-16 cells
Text: (§1) Test method: adding the appropriate volume of whole medium and the cells was suspended.

NCI-H1581 cells = assay: Cell proliferation assay on NCI-H1581 (Table 7); type: cell-based; conditions: Homo sapiens, NCI-H1581, read-out: IC50(nM) value of compounds on NCI-H1581 cells
Text: as §1

SMILES	IC50 (SNU-16 cells) [nM]	IC50 (NCI-H1581 cells) [nM]
C=CC(=O)N1CCN(CCCc2nc3c(-c4c(Cl)c(OC)cc(OC)c4Cl)cc4cnc(NC)nc4n3n2)C(C)(C)C1 [Compound 142, 1-(4-(3-(4-(2,6-dichloro-3,5-dimethoxyphenyl)-8-(methylamino)-[1,2,4]triazolo[1′,5′:1,6]pyrido[2,3-d]pyrimidin-2-yl)propyl)-3,3-dimethylpiperazin-1-yl)prop-2-en-1-one]	< 1	1 to 10
C=CC(=O)N1C[C@H]2CN(CCCc3nc4c(-c5c(Cl)c(OC)cc(OC)c5Cl)cc5cnc(NC)nc5n4n3)C[C@H]2C1 [Compound 128, 1-((3aR,6aS)-5-(3-(4-(2,6-dichloro-3,5-dimethoxyphenyl)-8-(methylamino)-[1,2,4]triazolo[1′,5′:1,6]pyrido[2,3-d]pyrimidin-2-yl)propyl)hexahydropyrrolo[3,4-c]pyrrol-2(1H)-yl)prop-2-en-1-one]	< 1	1 to 10

Source: patent publication US11365196B2, “FGFR inhibitor and application thereof” (Betta Pharmaceuticals Co., Ltd., priority 2017, dated 2022)
